# Source: ChEMBL document CHEMBL1155122, “Design and optimization of aniline-substituted tetrahydroquinoline C5a receptor antagonists” (Bioorg Med Chem Lett, 2008)
# Molecular target: T1, C5a anaphylatoxin chemotactic receptor 1 (Homo sapiens, UniProt P21730)
# T1 sequence (P21730 whole entry): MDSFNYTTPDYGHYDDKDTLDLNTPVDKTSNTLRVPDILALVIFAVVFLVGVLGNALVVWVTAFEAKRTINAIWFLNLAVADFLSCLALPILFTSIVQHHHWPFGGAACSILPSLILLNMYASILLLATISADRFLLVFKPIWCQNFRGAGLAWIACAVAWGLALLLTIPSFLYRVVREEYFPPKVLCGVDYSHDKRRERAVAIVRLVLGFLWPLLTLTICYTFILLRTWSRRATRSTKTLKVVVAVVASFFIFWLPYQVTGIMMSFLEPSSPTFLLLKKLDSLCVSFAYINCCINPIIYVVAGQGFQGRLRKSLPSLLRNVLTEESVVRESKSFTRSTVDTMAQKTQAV
# Assay: Antagonist activity at human recombinant C5a receptor in U937 cells assessed as inhibition of C5a-induced calcium mobilization by FLIPR assay
# Format: functional, cell-based, U-937
smiles,measurement,value
CCc1cccc(CC)c1-c1cc(OC)c2c(n1)CCCC2Nc1ccccc1C(F)(F)F (stereo unspecified),IC50,> 10 µM
